Experimental data from publication PMC3516921 (ChemMedChem, 2012).

Chains of the proteins cited; added tags and fusions are not shown.
UniProt P21554, whole entry: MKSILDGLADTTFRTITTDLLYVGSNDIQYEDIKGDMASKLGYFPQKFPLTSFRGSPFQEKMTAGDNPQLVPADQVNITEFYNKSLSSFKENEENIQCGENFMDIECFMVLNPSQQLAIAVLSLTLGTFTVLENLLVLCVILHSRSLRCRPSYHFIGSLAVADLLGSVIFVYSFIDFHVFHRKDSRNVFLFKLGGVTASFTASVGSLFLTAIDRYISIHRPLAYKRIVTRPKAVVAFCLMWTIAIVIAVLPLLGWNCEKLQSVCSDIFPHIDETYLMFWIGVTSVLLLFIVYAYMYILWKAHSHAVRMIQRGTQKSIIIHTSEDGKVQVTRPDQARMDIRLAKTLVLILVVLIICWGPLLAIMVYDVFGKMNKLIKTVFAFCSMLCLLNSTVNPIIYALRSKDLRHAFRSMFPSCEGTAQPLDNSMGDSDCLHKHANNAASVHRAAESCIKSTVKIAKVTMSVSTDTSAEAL

Target: human cannabinoid type 1 receptor (Homo sapiens, UniProt P21554)
Assay: CB1 receptor competitive binding assay with [3H]CP-55,940
Conditions: read-out: CB1 Ki

Substance: SR144528 [reference compound]
- Ki: > 2820 nM
